Laboratory results reported in article PMC7939391, “[4Fe-4S] cluster trafficking mediated by Arabidopsis mitochondrial ISCA and NFU proteins” (The Journal of Biological Chemistry, 2021).

Biological target: T1, ACO2 (Arabidopsis thaliana, UniProt Q94A28)
T1 sequence (Q94A28 98-995): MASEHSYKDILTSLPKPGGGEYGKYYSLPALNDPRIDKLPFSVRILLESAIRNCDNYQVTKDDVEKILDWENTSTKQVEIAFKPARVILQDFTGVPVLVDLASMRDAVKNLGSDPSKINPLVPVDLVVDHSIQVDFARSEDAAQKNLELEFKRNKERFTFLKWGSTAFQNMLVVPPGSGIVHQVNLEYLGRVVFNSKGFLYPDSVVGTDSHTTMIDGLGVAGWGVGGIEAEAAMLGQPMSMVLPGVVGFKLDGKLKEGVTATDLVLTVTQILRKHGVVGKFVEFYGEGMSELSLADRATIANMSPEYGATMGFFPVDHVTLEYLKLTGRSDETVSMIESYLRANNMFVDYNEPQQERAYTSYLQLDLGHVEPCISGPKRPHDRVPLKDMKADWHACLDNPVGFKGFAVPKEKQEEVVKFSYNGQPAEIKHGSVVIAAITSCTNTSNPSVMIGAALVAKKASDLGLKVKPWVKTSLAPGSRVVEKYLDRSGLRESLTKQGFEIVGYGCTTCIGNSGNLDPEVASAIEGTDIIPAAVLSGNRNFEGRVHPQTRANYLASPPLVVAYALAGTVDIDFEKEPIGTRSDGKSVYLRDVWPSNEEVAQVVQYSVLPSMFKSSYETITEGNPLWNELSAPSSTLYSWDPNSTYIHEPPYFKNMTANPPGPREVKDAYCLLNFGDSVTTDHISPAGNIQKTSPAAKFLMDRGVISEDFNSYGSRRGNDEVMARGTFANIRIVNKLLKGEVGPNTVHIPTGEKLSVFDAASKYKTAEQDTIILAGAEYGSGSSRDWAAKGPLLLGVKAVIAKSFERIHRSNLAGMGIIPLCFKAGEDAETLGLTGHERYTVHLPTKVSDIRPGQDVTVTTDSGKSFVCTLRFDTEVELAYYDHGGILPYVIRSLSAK
Conditions: apo-ACO2 2.4 uM; cluster from ISCA1a/2, NFU4 or NFU5; anaerobic, pH 7.8, room temperature; one cluster per monomer

With `[S]12[Fe]3[S]4[Fe]1[S]1[Fe]2[S]3[Fe]41` [[4Fe-4S]^2+ cluster] the “activation of apo-enzyme, aconitase activity at 240 nm” value was “reconstituted samples of ACO2 containing one [4Fe-4S] cluster per protein monomer”.
